By UniProt entry, the sequences of proteins in these tests, tags left out.
UniProt P00762, whole entry: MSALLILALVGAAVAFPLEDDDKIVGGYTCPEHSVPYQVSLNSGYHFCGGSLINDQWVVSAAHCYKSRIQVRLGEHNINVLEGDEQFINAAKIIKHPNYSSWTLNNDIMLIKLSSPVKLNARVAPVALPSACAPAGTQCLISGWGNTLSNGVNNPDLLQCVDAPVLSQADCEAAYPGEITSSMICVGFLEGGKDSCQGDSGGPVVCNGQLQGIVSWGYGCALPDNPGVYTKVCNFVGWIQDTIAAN

According to ChEMBL document CHEMBL3638843, “Urokinase inhibitors, production and use thereof” (2013):

Target: Serine protease 1 (Rattus norvegicus, UniProt P00762)
Assay: Enzyme Assay: Inhibition constant of the compound against Trypsin

Ki: 22 nM
SMILES: N=C(N)c1ccc(CNC(=O)[C@H](CO)NC(=O)[C@@H](CO)NS(=O)(=O)Cc2ccccc2)cc1
